# Laboratory results published in PubChem BioAssay (NCI).
# Only a part is listed here, and it is no random draw. Some structures show a salt or complex split into parts, the way the source records it. Some compounds were tested as several samples or in several runs, with calls that do not always agree. Active and inactive are the calls of the source. No stated cut-off is given here; in the data, active means growth inhibition above about 70%; inactive means the rest.
# Assays:
# [1] = NCI Yeast Anticancer Drug Screen. Data for the rad50 strain (AID 155);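 further: 0% = growth of vehicle-only cultures of the same strain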; conditions: S. cerevisiae rad50 strain growth inhibition, hits give high values
# [2] = NCI Yeast Anticancer Drug Screen. Data for the mec2-1 strain (AID 157); conditions: S. cerevisiae mec2-1 strain, hits give high values
# [3] = NCI Yeast Anticancer Drug Screen. Data for the sgs1 mgt1 strain (AID 161);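 further: 0% = growth of cultures given vehicle only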; conditions: S. cerevisiae sgs1 mgt1 strain, hits give high values
# [4] = NCI Yeast Anticancer Drug Screen. Data for the cln2 rad14 strain (AID 165);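 further: 0% = growth equal to vehicle treated cultures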; conditions: S. cerevisiae cln2 rad14 strain, hits give high values
# [5] = NCI Yeast Anticancer Drug Screen. Data for the mlh1 rad18 strain (AID 175); conditions: S. cerevisiae mlh1 rad18 strain growth inhibition, hits give high values
# [6] = NCI Yeast Anticancer Drug Screen. Data for the bub3 strain (AID 167); conditions: S. cerevisiae bub3 mutant strain, hits give high values
# [7] = at 5.0 µM (retest, dose inferred, filed as 0.5)
# [8] = at 50.0 µM (retest, dose inferred, filed as 5.0)
Structure (SMILES),"growth inhibition [1, 7]","growth inhibition [1, 8]",growth inhibition ([1]; at 50.0 µM),"growth inhibition [2, 7]","growth inhibition [2, 8]",growth inhibition ([2]; at 50.0 µM),"growth inhibition [3, 7]","growth inhibition [3, 8]",growth inhibition ([3]; at 50.0 µM),"growth inhibition [4, 7]","growth inhibition [4, 8]",growth inhibition ([4]; at 50.0 µM),"growth inhibition [5, 7]","growth inhibition [5, 8]",growth inhibition ([5]; at 50.0 µM),"growth inhibition [6, 7]","growth inhibition [6, 8]",growth inhibition ([6]; at 50.0 µM)
O=[N+]([O-])c1cc([N+](=O)[O-])c(O)c([N+](=O)[O-])c1.OCCN(CCCl)CCCl,inactive: -2%,inactive: 57%,active: 79.8%,inactive: 11%,inactive: 18%,inactive: 2.05%,inactive: 5%,inactive: 41%,inactive: 36.8%,inactive: -15%,inactive: 2%,inactive: -26.4%,inactive: 45%,active: 87%,inactive: 10.4%,–,–,–
O=[N+]([O-])c1cc([N+](=O)[O-])c(S(=O)(=O)[O-])c([N+](=O)[O-])c1.OCC[S+](CCO)CCSCCCl,inactive: 8%,inactive: 22%,inactive: 33.2%,inactive: 9%,inactive: 34%,inactive: 14.8%,inactive: 12%,inactive: 43%,inactive: 58.5%,inactive: 3%,inactive: 24%,inactive: 53.9%,inactive: 10%,inactive: 32%,active: 81.7%,inactive: 3%,inactive: 15%,inactive: 27.8%
CN(C)C(=O)OCC[N+](C)(C)CCC[N+](C)(C)CCOC(=O)N(C)C.O=[N+]([O-])c1cc([N+](=O)[O-])c([O-])c([N+](=O)[O-])c1,–,–,inactive: 10.3%,–,–,inactive: 3.25%,–,–,inactive: 5.65%,–,–,inactive: -1.4%,–,–,inactive: 22.1%,–,–,inactive: -1.6%
